In paper PMC6748826:
Several values for one entry are separate records, joined by “and”; a condition that tells them apart may be missing. Equal values may be shown once.

Legend:
[1] = biological target: heavy meromyosin (HMM) construct of human β-cardiac myosin (MYH7) with bound light chains (human | mouse (endogenous in C2C12)) (UniProt P12883); test: optical trap (three-bead geometry, ultra-fast force clamp); as a1 but 1 mM MgATP, no added Pi
[2] = biological target: heavy meromyosin (HMM) construct of human β-cardiac myosin (MYH7) with bound light chains (human | mouse (endogenous in C2C12)) (UniProt P12883); test: optical trap (three-bead geometry, ultra-fast force clamp); single myosin HMM attached non-specifically to nitrocellulose-coated silica pedestal beads; bead-actin-bead dumbbell; 1.5–4.5 pN assisting or hindering load; 1 μM MgATP, no added Pi; 60 mM MOPS, 10 mM DTT, 1 mM EGTA, 1 mM MgCl2, 1 mg/mL BSA; attachment durations fitted with two or three …
[3] = biological target: heavy meromyosin (HMM) construct of human β-cardiac myosin (MYH7) with bound light chains (human | mouse (endogenous in C2C12)) (UniProt P12883); test: optical trap (three-bead geometry, ultra-fast force clamp); as a1 but 10 mM free Pi, 1 μM MgATP; ionic strength held constant

k0 of ks (unloaded slow detachment rate, Bell equation fit, 1 mM MgATP) [1]: 31.5 s⁻¹
k0 of kf (unloaded fast detachment rate, Bell equation fit, assisting loads) [2]: 579 s⁻¹
k0 of kf (unloaded fast detachment rate, Bell equation fit, hindering loads) [2]: 354 s⁻¹
k0 of kint (unloaded intermediate detachment rate, Bell equation fit) [2]: 256 s⁻¹
kf (fastest detachment rate of the multi-exponential fit, increasing hindering or assisting forces) [2]: 3000 s⁻¹ and 6000 s⁻¹
kf (fastest detachment rate of the multi-exponential fit, low loads) [2]: 1000 s⁻¹
fold decrease of ks at 10 mM Pi against no added Pi [3]: 2 fold
Substance: actin from rabbit skeletal muscle (from UniProt P68135 1-377) (natural protein)
